Measurements: patent US20200085979A1, “PRECISION MEDICINE THERANOSTICS AND DIAGNOSTICS A COMBINATION THEREOF” (priority 2018, published 2020)

Tested on: HER2+ breast cancer
Test: human PET study versus [18F] Fludeoxyglucose PET scan in an HER2+ breast cancer patient
Details: in vivo
From the text: Embodiments of the present invention also utilize the therapeutic compounds of the invention in conjunction with a diagnostic. Compounds containing αvβ3/αvβ5 anti-integrin antagonist peptidomimetic, displaying a selective affinity for the HER2+ protein, vitronectin, fibronectin, tenascin, reelin, kindlin, talin or combination thereof for the diagnosis or prognosis of disorders using PET, SPECT and MRI or combinations by administering an effective amount of activity thereof to a subject, particularly for the diagnosis of diseases related to metastasis and angiogenesis such as breast cancer, lung cancer, ovarian cancer, gastric cancer, esophageal cancer, blood borne cancers, musculoskeletal tumors, melanoma, head and neck cancer, human glioma, cervical cancer, vascular restenosis, osteoporosis, rheumatoid arthritis. […] The compounds referred to may be radiotracers for nuclear medicine, such as the Gallium-68 or Fluorine-18, […], Copper-64, or Technetium-99m, covalently bound to a spacer, chelator, directly to the peptidomimetic, to a nanoparticle or to more than one amino acid unit of the peptidomimetic. Other radiotracers are those reported in the publication Radionuclide Peptide Cancer Therapy, edited by M. Chinol and G. Paganelli, Taylor and Francis CRC Press, 2006. […]

In the case of “[18F] Fludeoxyglucose [reference compound]”, the “tumors distant from the primary detected” value is reported as 12 tumors.
